Measurements taken from patent US20260382770A1, “MACROCYCLIC COMPOUND AND USE THEREOF” (published 2026).

What was measured:
[1] = Metal transfer stability test of compounds in the presence of zinc ions; settings: with ZnCl2, phosphate buffer, 37 °C, 0.5 T
Protocol: 1. Experimental protocol 2. Test samples: compound 4, gadodiamide, gadobutrol. 3. Experiment instruments: VTMR20-010V-1 Nuclear Magnetic Resonance Cross-Linking Density Imaging Analyzer 4. Experimental method
A 2.5 mM solution of contrast agent solutions and a 2.5 mM solution of zinc chloride were respectively prepared in phosphate buffer (0.026 mol/L KH2PO4 and 0.041 mol/L Na2HPO4). An equal volume of a 2.5 mM ZnCl2 solution was added to a 2.5 mM gadolinium contrast agent solution, and the mixture was mixed by shaking. This moment of complete mixing was designated as time zero (t=0). Immediately thereafter, a 0.5 mL aliquot was withdrawn and subjected to measurement of the longitudinal relaxation time, T1(0), at 37 °C and a magnetic field strength of 0.5 T. The mixed solution was then incubated at 37 °C. 0.5 mL of the solution was taken at time points of 5 min, 180 min, 1440 min and 5760 min, respectively, to determine T1(t) at different time points. The ratio of the relaxivity at different time points to the initial relaxivity at time 0, namely R1(t)/R1(0), was calculated.

[2] = Relaxivity of the compound in water; settings: in deionized water
Protocol: (§1) Gadobutrol, RC1 (Gadopiclenol, prepared according to the method described in example 2 of WO 2020030618 A1), compound 4 and compound 5.
Niumag (Suzhou) Nuclear Magnetic Resonance Contrast Agent Relaxivity Analyzer with a 0.5 T magnetic field
Bruker Small Animal Magnetic Resonance Imaging System (BioSpec 70/20 USR) with a 7 T magnetic field
Gadobutrol, RC1, compound 4 and compound 5 were accurately weighed and dissolved in deionized water to prepare solutions with concentrations of 0.5 mM, 1 mM, 2 mM and 4 mM, respectively. 1 mL of the test sample was placed in a 1.5 mL EP (eppendorf) tube, and the longitudinal relaxation time T1 and transverse relaxation time T2 under different magnetic field conditions were measured separately using the Niumag (Suzhou) Nuclear Magnetic Resonance Contrast Agent Relaxivity Analyzer with a 0.5 T magnetic field. The test sample was loaded into a 0.2 mL sample tube until full, and the longitudinal relaxation time T1 and transverse relaxation time T2 under different magnetic field conditions were measured separately using the Bruker Small Animal Magnetic Resonance Imaging System (BioSpec 70/20 USR) with a 7 T magnetic field.
(§2) Based on the relaxation times T1 and T2 of samples at different concentrations, the relaxivities r1 and r2 were calculated respectively. The relaxivity was calculated according to the following equation: […]
r: relaxivity; T: relaxation time (s); C: contrast agent concentration (mM).

[3] = Kinetic stability of compounds in acidic medium (Gd3+ dissociation rate); settings: pH 1.2 hydrochloric acid, 37 °C, 8×10^−6 M
Protocol: as §1
Molecular Devices SpectraMax M2/M2e Microplate Reader.
(1) Hydrochloric acid (pH 1.2) was used as a solvent, and solutions of RC1, compound 4, compound 5 and gadobutrol were prepared at a concentration of 8×10^−6 M, respectively, for subsequent use.
(2) Standard curve plotting: An appropriate amount of GdCl3·6H2O (Shanghai Dingxian Biotechnology Co., Ltd.) was accurately weighed into vials. Then, 1 mL of solutions containing free Gd^3+ at concentrations of 0, 1×10^−6 M, 2×10^−6 M, 4×10^−6 M, 6×10^−6 M, 8×10^−6 M and 10×10^−6 M were prepared respectively using deionized water. Each of the solutions was thoroughly mixed with 40 μL of 5.3×10^−4 M arsenazo III solution (a chromogenic reagent, Shanghai Macklin Biochemical Co., Ltd.) via vortexing. After incubation in the dark at room temperature for 15 min, 150 μL of the mixture was transferred to each well (with duplicate wells) in a 96-well plate, and the absorbance was determined at a wavelength of 655 nm. A standard curve of Gd^3+ concentration versus absorbance was established.
(3) Compound testing: 500 ml of each pre-prepared test solution at a concentration of 8×10^−6 M was evenly dispensed into 3 vials, with 150 mL per vial. The vials were placed at 37 °C 25 mL of the solution was collected from each vial at 0 h, 24 h, 48 h, 96 h and 168 h, respectively. NaOH was added to adjust the pH of the solution to neutral (as indicated by pH test paper). Subsequently, 1 mL of 5.3×10^−4 M arsenazo III solution was added, and the mixture was thoroughly mixed via vortexing. After incubation in the dark at room temperature for 15 min, 150 μL of the mixture was transferred to each well (with duplicate wells) in a 96-well plate, and the absorbance of the samples was determined at a wavelength of 655 nm.
(4) The concentration of free Gd^3+ and the dissociation rate of each test solution at different time points were calculated based on the formula fitted from the standard curve.

canine plasma proteins = test: In vitro canine plasma protein binding rate of compounds; settings: 1 mM
Protocol: 1. Test samples: EIucirem™ (Gadopiclenol, commercially purchased, lot P233A), compound 4
Elucirem™ and compound 4 were respectively diluted with blank canine plasma to prepare plasma samples at a concentration of 1 mM. The binding rates of Gadopiclenol and compound 4 to canine plasma proteins were determined by ultracentrifugation. After the preparation of plasma samples, 0.5 mL of plasma samples were transferred into ultracentrifugation tubes, with 3 replicates per concentration. After incubation in a CO2 incubator at 37 °C for 0.5 h, the samples were subjected to ultracentrifugation at 627,000 g for 3 hours at 37 °C. After centrifugation, 100 μL of samples were taken from the central layer of the ultracentrifugation tubes and mixed with 100 μL of blank plasma. The samples were stored at −70 °C for subsequent determination. The concentrations of Gadopiclenol and compound 4 in the samples were quantitatively analyzed by LC-MS/MS.
The plasma protein binding rates of analytes at different concentration levels were calculated using the following formulas:
Free rate %=(Concentration of the central layer in ultracentrifugation tubes(Cu)/Concentration of non-ultracentrifuged samples after 0.5 h incubation(C0-5h))*100%, • Binding rate %=100%—Free rate %.

[4] = Determination of relaxivity of compounds in human plasma; settings: 0.5 T, human plasma containing sodium heparin
Protocol: In other embodiments, in the longitudinal relaxivity r1 test experiment in human plasma (the longitudinal relaxation time T1 is measured at a 0.5 T magnetic field strength using a medium-sized nuclear magnetic resonance imaging analyzer (MesoMR23-060-I), and the relaxivity r1 is calculated based on the relaxation time T1 of samples at different concentrations according to the relaxivity calculation formula
Gadobutrol (Gadovist®), EIucirem™ (Gadopiclenol, commercially purchased), compound 4.
Medium-Sized Nuclear Magnetic Resonance Imaging Analyzer (model: MesoMR23-060-I) with a 0.5 T magnetic field
Human plasma containing sodium heparin was used as the matrix. Compound 4 (0.5 M), gadobutrol injection (1 M) and Gadopiclenol injection (0.5 M) were separately diluted to prepare test solutions at concentrations of 4, 2, 1, 0.5 and 0.25 mM, respectively. 1 mL of each test sample was transferred into a 1.5 mL centrifuge tube, and the longitudinal relaxation time T1 and transverse relaxation time T2 were measured at a 0.5 T magnetic field strength using the Medium-Sized Nuclear Magnetic Resonance Imaging Analyzer (MesoMR23-060-1).
as §2

[5] = 0 h, BLQ is below the limit of quantification
[6] = 24 h, BLQ is below the limit of quantification
[7] = 48 h, BLQ is below the limit of quantification

Gadodiamide
R1(t)/R1(0) ([1]; 0 min): 1
R1(t)/R1(0) ([1]; 5 min): 1.07
R1(t)/R1(0) ([1]; 180 min): 0.59
R1(t)/R1(0) ([1]; 1440 min): 0.59
R1(t)/R1(0) ([1]; 5760 min): 0.38

Gadopiclenol
Relaxivity r1 ([2]; 0.5 T): 11.7 mM⁻¹ s⁻¹
Relaxivity r1 ([2]; 7 T): 6.3 mM⁻¹ s⁻¹
Gd^3+ Dissociation rate (%) [3, 5]: BLQ
Gd^3+ Dissociation rate (%) [3, 6]: 24.7%
Gd^3+ Dissociation rate (%) [3, 7]: 35.6%
Gd^3+ Dissociation rate (%) ([3]; 96 h): 37.8%
Gd^3+ Dissociation rate (%) ([3]; 168 h): 61.1%
binding to canine plasma proteins (in words) (canine plasma proteins): does not bind to plasma proteins
Average % (plasma protein binding rate) (canine plasma proteins; ultracentrifugation, 37 °C, average of 3 replicates, if the binding rate is less than 0, the average is recorded as 0%): 0* %

Gadobutrol
Relaxivity r1 ([2]; 0.5 T): 4.4 mM⁻¹ s⁻¹
Relaxivity r1 ([2]; 7 T): 3.5 mM⁻¹ s⁻¹
Gd^3+ Dissociation rate (%) [3, 5]: BLQ
Gd^3+ Dissociation rate (%) [3, 6]: 73.5%
Gd^3+ Dissociation rate (%) [3, 7]: 70.1%
Gd^3+ Dissociation rate (%) ([3]; 96 h): 64.6%
Gd^3+ Dissociation rate (%) ([3]; 168 h): 95.3%
Relaxivity r1 [4]: 7.5 mM⁻¹ s⁻¹
R1(t)/R1(0) ([1]; 0 min): 1
R1(t)/R1(0) ([1]; 5 min): 0.93
R1(t)/R1(0) ([1]; 180 min): 0.82
R1(t)/R1(0) ([1]; 1440 min): 0.96
R1(t)/R1(0) ([1]; 5760 min): 0.90

2,2′,2′-(1^3-methoxy-3,6,9-triaza-1(2,6)-pyridine cyclodecane-3,6,9-triyl)tris(5-((2,3-dihydroxypropyl)amino)-5-oxopentanedioic Acid)gadolinium (III) Complex
Gd^3+ Dissociation rate (%) [3, 5]: BLQ
Gd^3+ Dissociation rate (%) [3, 6]: 24.1%
Gd^3+ Dissociation rate (%) [3, 7]: 28.7%
Gd^3+ Dissociation rate (%) ([3]; 96 h): 32.3%
Gd^3+ Dissociation rate (%) ([3]; 168 h): 42.1%

Marks after values point to notes of the source that are not given here.
